Among the data in PubChem BioAssay AID504374 (National Center for Advancing Translational Sciences (NCATS), 2011) are activity, negative = inhibition values, retold here.

Protein sequences, listed by entry. Tags and fused reporters are not part of them.
UniProt Q01196, whole entry, looked up: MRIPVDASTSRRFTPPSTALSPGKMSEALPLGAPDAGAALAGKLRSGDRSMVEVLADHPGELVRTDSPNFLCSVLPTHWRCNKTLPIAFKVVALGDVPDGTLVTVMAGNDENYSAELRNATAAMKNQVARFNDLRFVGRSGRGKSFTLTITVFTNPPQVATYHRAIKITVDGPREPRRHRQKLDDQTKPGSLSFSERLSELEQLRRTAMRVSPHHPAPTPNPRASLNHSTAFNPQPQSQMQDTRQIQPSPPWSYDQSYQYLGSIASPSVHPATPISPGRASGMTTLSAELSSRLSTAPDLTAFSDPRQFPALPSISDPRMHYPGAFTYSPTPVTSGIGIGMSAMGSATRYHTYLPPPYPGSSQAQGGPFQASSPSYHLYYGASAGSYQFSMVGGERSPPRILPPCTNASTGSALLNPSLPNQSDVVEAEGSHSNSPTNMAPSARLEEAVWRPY
UniProt Q13951, whole entry, looked up: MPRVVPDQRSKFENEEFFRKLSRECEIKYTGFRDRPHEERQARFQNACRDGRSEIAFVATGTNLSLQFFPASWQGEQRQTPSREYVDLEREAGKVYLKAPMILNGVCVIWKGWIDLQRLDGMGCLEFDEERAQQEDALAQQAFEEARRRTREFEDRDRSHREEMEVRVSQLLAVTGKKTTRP

Only a part is listed here, and it is no random draw. Results filed as inconclusive are left out. The source made the active and inactive calls. The call rests on the fitted dose curve; in most records, active means well fitted inhibition curve with a large enough effect; inconclusive means small, poorly fitted or top-dose-only effect, or effect the other way; inactive means flat fitted curve, though single readings scatter.
On the % scale 0 is the no-effect control and ±100 the full control effect.

For the test, the target named is Runt-related transcription factor 1 (Homo sapiens) + Core-binding factor subunit beta (Homo sapiens) (UniProt Q01196+Q13951). Nature of the test: qHTS Assay for Compounds Blocking the Interaction Between CBF-beta and RUNX1 for the Treatment of Acute Myeloid Leukemia: Hit Validation. Further: nearly all actives have a fitted effect of over 60% in size. As to conditions: AlphaScreen CBFb-His/RUNX1-biotin binding; at 59.8 µM (top of the series). (In general: In qHTS, concentration-response curves come from the screen itself.)
In the case of `N#CC1(Nc2ccccc2)CCN(Cc2ccccc2)CC1`, the activity, negative = inhibition was inactive: 3.4%.
